Results as given in patent US20250375542A1, “18F-LABELED PSMA-TARGETED PET IMAGING AGENTS” (Cancer Targeted Technology LLC, priority 2013, published 2025).

Test system: CWR22Rv1 (PSMA+) tumor xenografts
Experiment: PET imaging and biodistribution in CWR22Rv1 (PSMA+) tumor xenograft mice

O=C(O)CCC(NP(=O)(O)OCCCC(NC(=O)CCC(NC(=O)CCCCCNC(=O)c1ccc([18F])cc1)C(=O)O)C(=O)O)C(=O)O (centres unmarked) [[18F]CTT1057]
Kidneys uptake (ex vivo biodistribution Example 14, 1 h): 18.12±2.21 % ID/g
Kidneys uptake (ex vivo biodistribution Example 14, 4 h): 17.17±4.13 % ID/g
